Data reported in PMC10014601, “The cyclic peptide G4CP2 enables the modulation of galactose metabolism in yeast by interfering with GAL4 transcriptional activity” (Frontiers in Molecular Biosciences, 2023).

Assay: PAMPA-BBB passive membrane permeability
Settings: PAMPA-BBB validation; porcine brain lipid in dodecane (20 mg/L); PBS/DMSO 95:5 pH 7.4; 40–100 μM donor; 18 h, 25°C; UV-vis; mean ± SD, four wells, three runs

NCCc1ccc(O)c(O)c1 [Dopamine]
Pe,exp: 0.22 ± 0.04 10-6 cm/s
